Our source for the outcome values is PubChem BioAssay AID1194 (EPA DSSTox, 2008).

Calls of active or inactive are those of the source.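 How the source made its calls: active means chemicals rated mutagenic or weakly mutagenic in the Salmonella bacterial test by one literature review, or positive overall by another; inconclusive means no clear call, values can overlap the other calls; inactive means the rest.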

This data set deals with Salmonella typhimurium Ames mutagenicity, literature compiled. As to the kind of experiment: DSSTox (CPDBAS) Carcinogenic Potency Database Salmonella Mutagenicity. The text has this: The Carcinogenic Potency Database (CPDB) is a unique and widely used international resource of the results of over 6500 chronic, long-term animal cancer tests on over 1500 chemical substances. The CPDB provides easy access to the bioassay literature, with qualitative and quantitative analyses of both positive and negative experiments that have been published over the past 50 years in the general literature and by the National Cancer Institute/National Toxicology Program. The CPDB standardizes the diverse literature of cancer bioassays that vary widely in protocol, histopathological examination and nomenclature, and in the published author's choices of what information to provide in their papers. Results are reported in the CPDB for tests in rats, mice, hamsters, dogs, and nonhuman primates, and are based on the most positive result among all experiments for each sex-species. The DSSTox CPDBAS (all species) file incorporates data from the CPDB Summary Tables for the full list of over 1500 chemical substances tested in at least one species.
A chemical is classified within the CPDB as mutagenic, i.e. "active", in the Salmonella assay if it was evaluated overall as either "mutagenic" or "weakly mutagenic" by Zeiger [Zeiger, E. (1997) Genotoxicity Database. In: Gold and Zeiger, Eds. Handbook of Carcinogenic Potency and Genotoxicity Databases. Boca Raton, FL: CRC Press, pp. 687-729. http://potency.berkeley.edu/CRCbook.html] or as overall "positive" by the EPA Gene-Tox Program [Kier et al. (1986) Mutat. Res. 168: 69-240].
As to `COP(=O)(OC)N1CCOCC1`, the outcome was “inactive; active”.

As to `C1CN1`, the outcome was “active; inactive”. Then `NC(=O)Nc1ccc([As](=O)(O)O)cc1`, with “inactive; active”; and `CN(N=O)C(=N)N[N+](=O)[O-]`, with “active”.

With `O=C1C2CC=CCC2C(=O)N1SC(Cl)(Cl)C(Cl)Cl` (stereo not given), the outcome is “inactive; active”.
